According to PubChem BioAssay AID2524 (Sanford-Burnham Center for Chemical Genomics, 2010):
Only a part is listed here, and it is no random draw. The source made the active and inactive calls.

Protein sequences, listed by entry. Tags and fused reporters are not part of them.
UniProt P09923, whole entry: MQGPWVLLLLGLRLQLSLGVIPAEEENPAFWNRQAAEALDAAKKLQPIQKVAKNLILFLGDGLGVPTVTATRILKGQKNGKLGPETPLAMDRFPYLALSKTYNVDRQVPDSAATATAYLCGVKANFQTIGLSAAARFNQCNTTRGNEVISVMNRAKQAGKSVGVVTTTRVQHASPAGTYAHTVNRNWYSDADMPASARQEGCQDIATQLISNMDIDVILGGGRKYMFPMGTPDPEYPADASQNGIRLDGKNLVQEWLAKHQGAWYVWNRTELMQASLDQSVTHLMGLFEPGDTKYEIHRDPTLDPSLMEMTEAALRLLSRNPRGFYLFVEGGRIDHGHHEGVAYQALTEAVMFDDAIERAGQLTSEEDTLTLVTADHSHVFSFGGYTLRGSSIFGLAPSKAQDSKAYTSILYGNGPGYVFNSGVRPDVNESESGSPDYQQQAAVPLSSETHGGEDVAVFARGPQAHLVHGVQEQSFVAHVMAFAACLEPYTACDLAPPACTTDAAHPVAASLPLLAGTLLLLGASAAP

These molecules were tested against Intestinal-type alkaline phosphatase (Homo sapiens) (UniProt P09923) (assay: human IAP activators, primary screen, biochemical, luminescence, uHTS (AID 2524)). Settings: purified human IAP, CDP-Star luminescence, 30 min; at 10 µM; active compounds read high; 1 = vehicle-only enzyme, 0 = enzyme-free background.
For CP(=O)(Oc1ccccc1)OC(c1ccccc1)C(F)(F)F (stereo not drawn), the activation factor was inactive: 0.968. CP(=O)(Nc1ccccn1)Oc1ccc(Cl)cc1 (stereo not drawn) was tested, and the activation factor was inactive: 1.13. O=[N+]([O-])c1cc([N+](=O)[O-])c(O)c([N+](=O)[O-])c1.c1ccc(Oc2ccncc2)cc1 was tested, and the activation factor was inactive: 1.08. With CCOC(=O)c1ccc(NP(C)(=O)Oc2ccc(OC)cc2)cc1 (stereo not drawn) the activation factor was inactive: 1.08. In the case of CCOP(C)(=S)SCC(=O)NC(C)C(=O)O (stereo not drawn), the activation factor is reported as inactive: 1.09. With O=[N+]([O-])c1cc([N+](=O)[O-])c(-n2nnc3ccccc32)c([N+](=O)[O-])c1 the activation factor was inactive: 0.934. In the case of Cc1nc2ccc3ccccc3c2s1.O=[N+]([O-])c1cc([N+](=O)[O-])c(O)c([N+](=O)[O-])c1, the activation factor is reported as inactive: 0.992. In the case of O=[N+]([O-])c1cc([N+](=O)[O-])c(-c2cnn(-c3ccccc3)c2)c([N+](=O)[O-])c1, the activation factor is reported as inactive: 0.919. O=[N+]([O-])c1cc([N+](=O)[O-])c(Nc2nnnn2CCO)c([N+](=O)[O-])c1 was tested, and the activation factor was inactive: 0.77. In the case of CC1=C2N=C(C=C3N=C(C(C)=C4[N-][C@@](C)([C@@H]5N=C1[C@](C)(CCC(=O)NC[C@@H](C)OP(=O)([O-])O[C@H]1[C@@H](O)[C@@H](n6cnc7cc(C)c(C)cc76)O[C@@H]1CO)[C@H]5CC(N)=O)[C@@](C)(CC(N)=O)[C@@H]4CCC(N)=O)[C@@](C)(CC(N)=O)[C@@H]3CCC(N)=O)C(C)(C)[C@@H]2CCC(N)=O.[C-]#N.[Co+3], the activation factor is reported as inactive: 0.798. In the case of CCOC(=O)C(CC)C1=NC(C)(C)Cc2ccccc21.O=[N+]([O-])c1cc([N+](=O)[O-])c(O)c([N+](=O)[O-])c1 (stereo not drawn), the activation factor is reported as inactive: 0.902. In the case of CP(=O)(Nc1ccc(SC(F)(F)F)cc1)Oc1ccccc1 (stereo not drawn), the activation factor is reported as inactive: 0.866. CCCOc1ccc(NP(C)(=O)Oc2ccc(Cl)cc2)cc1 (stereo not drawn) was tested, and the activation factor was inactive: 0.982. For CN1CCCCC1COC(=O)C1(O)c2ccccc2CCc2ccccc21 (stereo not drawn), the activation factor was inactive: 1.7. COc1ccccc1OP(C)(=O)Nc1c(C)cccc1C (stereo not drawn) was tested, and the activation factor was inactive: 1.03. For O=C(O)c1cccc(Nc2c([N+](=O)[O-])cc([N+](=O)[O-])cc2[N+](=O)[O-])c1, the activation factor was inactive: 0.847. With CC1=NCCc2c1[nH]c1ccccc21.O=[N+]([O-])c1cc([N+](=O)[O-])c(O)c([N+](=O)[O-])c1 the activation factor was inactive: 0.869. With CCOC(=O)c1ccc(NP(C)(=O)Oc2cc(C)cc(C)c2)cc1 (stereo not drawn) the activation factor was inactive: 0.96. Cc1cc(C)cc(OP(C)(=O)Nc2ccc(C)cc2C)c1 (stereo not drawn) was tested, and the activation factor was inactive: 1.09. In the case of COc1ccccc1OP(C)(=O)Nc1cccc(Br)c1 (stereo not drawn), the activation factor is reported as inactive: 0.879. For Cc1ccc(C)c(NP(C)(=O)Oc2ccccc2)c1 (stereo not drawn), the activation factor was inactive: 1.07. In the case of CP(=O)(Nc1cccc(Br)c1)Oc1ccccc1 (stereo not drawn), the activation factor is reported as inactive: 0.897. For Cc1cc(C)cc(OP(C)(=O)Nc2ccccn2)c1 (stereo not drawn), the activation factor was inactive: 0.927.
